The values that follow are results of earlier work, collected in article PMC9335916 (ACS Central Science, 2022).

The series deals with beta-lactoglobulin, genetic variant B (BLG) none (natural genetic variant B) (UniProt P02754). Description: not stated. As to conditions: cited from earlier work.

In the case of “beta-lactoglobulin, genetic variant B (BLG) none (natural genetic variant B)”, the Kd, dimer dissociation is, setting by setting: (pH 6.5) 4 µM; (pH 6.9, ionic strength of 0.13, phosphate buffer (concentration not stated)) 7 µM; (pH 7.5) 8.6 µM.
